In patent US20150011501A1, “PARTIALLY DEPOLYMERIZED GLYCOSAMINOGLYCAN SILVER AND GOLD SALTS” (priority 2012, published 2015):

Test: Stability test (visual inspection of colour in the dark and under ambient light)
Assay type: physicochemical
Settings: precipitated product
Description: After this time, a visual inspection of the products was carried out and the products were protected in the dark again. After 12 hours, another visual inspection of the products was carried out. The products were then exposed to ambient light. After 5 hours, a visual inspection of the products was carried out.

Measured: color (visual inspection)

Partially Depolymerized Silver Chondroitin Sulfate (Bleaching Agent: Sodium Thiosulfate) [comparative example 6]
black: after 1 hour in the dark | after 5 hours of exposure to ambient light | after 12 hours in the dark
